# According to patent US8738114B2, “Systems and methods for measuring and modeling in vivo manganese ion transport in a subject” (Celtrast LLC, priority 2009, dated 2014):
# Where two headings read alike, the source gives them in different places.
# Experiments:
# [1] = not given; remark: listed apart in the source
# [2] = Model 1, 65 nmoles/g MnCl2 i.v. infusion
# [3] = Model 1, 119 nmoles/g MnCl2 i.v. infusion
# [4] = Model 1, 190 nmoles/g MnCl2 i.v. infusion
# [5] = Model 1, 280 nmoles/g MnCl2 i.v. infusion
# [6] = Model 2, 65 nmoles/g MnCl2 i.v. infusion
# [7] = Model 2, 119 nmoles/g MnCl2 i.v. infusion
# [8] = Model 2, 190 nmoles/g MnCl2 i.v. infusion
# [9] = Model 2, 280 nmoles/g MnCl2 i.v. infusion
# [10] = Model 3, 65 nmoles/g MnCl2 i.v. infusion
# [11] = Model 3, 119 nmoles/g MnCl2 i.v. infusion
# [12] = Model 3, 190 nmoles/g MnCl2 i.v. infusion
# [13] = Model 3, 280 nmoles/g MnCl2 i.v. infusion
substance,measurement,setting,value
manganese chloride [MnCl2],k10 transfer rate parameter (Mn^2+ efflux from blood to organs other than heart),[2],5.9 h⁻¹
same,"k12 transfer rate parameter (blood to heart, influx)",[2],0.04/0.04/0.04 h^−1
same,"k21(a,) transfer rate parameter (heart to blood, efflux)",[2],0.08 h⁻¹
same,k10 transfer rate parameter (Mn^2+ efflux from blood to organs other than heart),[3],6.5 h⁻¹
same,"k12 transfer rate parameter (blood to heart, influx)",[3],0.06 h⁻¹
same,"k21(a,) transfer rate parameter (heart to blood, efflux)",[3],0.11 h⁻¹
same,k10 transfer rate parameter (Mn^2+ efflux from blood to organs other than heart),[4],6.4 h⁻¹
same,"k12 transfer rate parameter (blood to heart, influx)",[4],0.06/0.06/0.06 h^−1
same,"k21(a,) transfer rate parameter (heart to blood, efflux)",[4],0.22 h⁻¹
same,k10 transfer rate parameter (Mn^2+ efflux from blood to organs other than heart),[5],6.9/6.9/6.9 h^−1
same,"k12 transfer rate parameter (blood to heart, influx)",[5],0.07/0.07/0.07 h^−1
same,"k21(a,) transfer rate parameter (heart to blood, efflux)",[5],0.37 h⁻¹
same,k10 transfer rate parameter (Mn^2+ efflux from blood to organs other than heart),[6],6.0 h⁻¹
same,"k12 transfer rate parameter (blood to heart, influx)",[6],0.04/0.04/0.04 h^−1
same,"k21(a,) transfer rate parameter (free cytosol to blood, efflux)",[6],0.51 h⁻¹
same,k23 transfer rate parameter (uptake into cytosolic compartments),[6],12.4 h⁻¹
same,k32 transfer rate parameter (release from cytosolic compartments),[6],2.4 h⁻¹
same,k10 transfer rate parameter (Mn^2+ efflux from blood to organs other than heart),[7],6.1 h⁻¹
same,"k12 transfer rate parameter (blood to heart, influx)",[7],0.05 h⁻¹
same,"k21(a,) transfer rate parameter (free cytosol to blood, efflux)",[7],0.54 h⁻¹
same,k23 transfer rate parameter (uptake into cytosolic compartments),[7],11.8 h⁻¹
same,k32 transfer rate parameter (release from cytosolic compartments),[7],3.1 h⁻¹
same,k10 transfer rate parameter (Mn^2+ efflux from blood to organs other than heart),[8],6.7 h⁻¹
same,"k12 transfer rate parameter (blood to heart, influx)",[8],0.06/0.06/0.06 h^−1
same,"k21(a,) transfer rate parameter (free cytosol to blood, efflux)",[8],0.62 h⁻¹
same,k23 transfer rate parameter (uptake into cytosolic compartments),[8],7.4 h⁻¹
same,k32 transfer rate parameter (release from cytosolic compartments),[8],4.3 h⁻¹
same,k10 transfer rate parameter (Mn^2+ efflux from blood to organs other than heart),[9],6.9/6.9/6.9 h^−1
same,"k12 transfer rate parameter (blood to heart, influx)",[9],0.07/0.07/0.07 h^−1
same,"k21(a,) transfer rate parameter (free cytosol to blood, efflux)",[9],0.91 h⁻¹
same,k23 transfer rate parameter (uptake into cytosolic compartments),[9],5.9 h⁻¹
same,k32 transfer rate parameter (release from cytosolic compartments),[9],4.5 h⁻¹
same,rate of Mn^2+ uptake into the intracellular compartments relative to the efflux rate,Model 2 prediction,approximately 12 times
same,k10 transfer rate parameter (Mn^2+ efflux from blood to organs other than heart),[10],6.0 h⁻¹
same,"k12 transfer rate parameter (blood to heart, influx)",[10],0.04/0.04/0.04 h^−1
same,"k21(a,) transfer rate parameter (free cytosol to blood, efflux; k21a = NCX in Model 3)",[10],0.60 h⁻¹
same,k23 transfer rate parameter (free cytosol to sarcoplasmic reticulum),[10],0.60 h⁻¹
same,k24 transfer rate parameter (free cytosol to mitochondria),[10],—/—/0.07 h^−1
same,k32 transfer rate parameter (sarcoplasmic reticulum to free cytosol),[10],0.19 h⁻¹
same,k42 transfer rate parameter (mitochondria to free cytosol),[10],—/—/0.31 h^−1
same,k10 transfer rate parameter (Mn^2+ efflux from blood to organs other than heart),[11],6.5 h⁻¹
same,"k12 transfer rate parameter (blood to heart, influx)",[11],0.05 h⁻¹
same,"k21(a,) transfer rate parameter (free cytosol to blood, efflux; k21a = NCX in Model 3)",[11],0.58 h⁻¹
same,k23 transfer rate parameter (free cytosol to sarcoplasmic reticulum),[11],0.61 h⁻¹
same,k24 transfer rate parameter (free cytosol to mitochondria),[11],—/—/0.07 h^−1
same,k32 transfer rate parameter (sarcoplasmic reticulum to free cytosol),[11],0.28 h⁻¹
same,k42 transfer rate parameter (mitochondria to free cytosol),[11],—/—/0.37 h^−1
same,k10 transfer rate parameter (Mn^2+ efflux from blood to organs other than heart),[12],6.6 h⁻¹
same,"k12 transfer rate parameter (blood to heart, influx)",[12],0.06/0.06/0.06 h^−1
same,"k21(a,) transfer rate parameter (free cytosol to blood, efflux; k21a = NCX in Model 3)",[12],0.71 h⁻¹
same,k23 transfer rate parameter (free cytosol to sarcoplasmic reticulum),[12],0.48 h⁻¹
same,k24 transfer rate parameter (free cytosol to mitochondria),[12],—/—/0.05 h^−1
same,k32 transfer rate parameter (sarcoplasmic reticulum to free cytosol),[12],0.37 h⁻¹
same,k42 transfer rate parameter (mitochondria to free cytosol),[12],—/—/0.75 h^−1
same,k10 transfer rate parameter (Mn^2+ efflux from blood to organs other than heart),[13],6.9/6.9/6.9 h^−1
same,"k12 transfer rate parameter (blood to heart, influx)",[13],0.07/0.07/0.07 h^−1
same,"k21(a,) transfer rate parameter (free cytosol to blood, efflux; k21a = NCX in Model 3)",[13],0.79 h⁻¹
same,k23 transfer rate parameter (free cytosol to sarcoplasmic reticulum),[13],0.41 h⁻¹
same,k24 transfer rate parameter (free cytosol to mitochondria),[13],—/—/0.05 h^−1
same,k32 transfer rate parameter (sarcoplasmic reticulum to free cytosol),[13],0.57 h⁻¹
same,k42 transfer rate parameter (mitochondria to free cytosol),[13],—/—/0.87 h^−1
same,blood pool clearance,post-MnCl2 infusion,~12 min
same,approximate efflux transfer rate k21 for the infarcted region,"[1]; MI mice, 190 nmoles/g MnCl2, from linear fit Eq. [15] at equivalent dose of approximately 400 nmoles/g",~0.52 h⁻¹
same,efflux transfer rate k21 for the viable region,[1]; same infusion dose (190 nmoles/g MnCl2),0.22 h⁻¹
